# Values joined by “and” are separate entries in the source; they are usually repeats but may differ in a detail not shown here. Equal values may be shown once. The entries are a selection whose mix differs from that of the whole data set. Potency and affinity values are given separately. Active and inactive are the calls of the source.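 How the source made its calls: active means inhibition of at least 50% with at least 30 cells and total cytoplasm GFP at most 10,000,000; inconclusive means under 30 cells or total GFP of 10,000,000 plus; inactive means the rest.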
# Protein sequences, listed by entry. Tags and fused reporters are not part of them. Lines headed by an entry give the natural chain unless they say otherwise; changes in a name come on top.
# UniProt Q9HC97: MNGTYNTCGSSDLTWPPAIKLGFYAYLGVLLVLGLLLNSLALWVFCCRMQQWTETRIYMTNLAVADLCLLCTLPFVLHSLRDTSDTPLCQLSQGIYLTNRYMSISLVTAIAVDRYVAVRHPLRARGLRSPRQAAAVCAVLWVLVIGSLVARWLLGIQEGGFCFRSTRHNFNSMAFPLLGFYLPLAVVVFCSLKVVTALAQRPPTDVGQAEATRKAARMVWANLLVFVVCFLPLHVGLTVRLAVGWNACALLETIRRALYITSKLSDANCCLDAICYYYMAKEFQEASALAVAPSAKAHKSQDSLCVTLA
# Molecular target: G-protein coupled receptor 35 (Homo sapiens) (UniProt Q9HC97)
# Experiment: GPR35 antagonists blocking zaprinast-driven arrestin recruitment, primary screen, imaging, U2OS, beta-arrestin-GFP, zaprinast agonist (AID 2058)
# Conditions: U2OS GPR35 beta-arrestin-GFP translocation imaging, zaprinast antagonism; at 10 µM; hits give high values
row,SMILES,inhibition
1,CC(C)(C)C(=O)NC(Sc1ccncn1)C(Cl)(Cl)Cl (centres undefined),inactive: -4.4%
2,O=[N+]([O-])c1ncn(CCn2ncnc2[N+](=O)[O-])n1,inactive: -0.4%
3,O=[N+]([O-])c1cccc(NC2=NCC(CBr)S2)c1 (centres undefined),inactive: -2.2%
4,O=C(O)CNc1ccc([As](=O)(O)O)cc1,inactive: 3.3%
5,O=C(Nc1cc([As](=O)(O)O)ccc1O)c1ccccc1,inactive: 8.3%
6,Nc1ccc([As](=O)(O)c2ccc(N)cc2)cc1,inactive: 0.2%
7,C[N+]1=C2C=CC=CC=C2SC12C([N+](=O)[O-])=CC([N+](=O)[O-])=C[C-]2[N+](=O)[O-] (centres undefined),inactive: -25.5%
8,CCN(/C(=N/P(=O)(N1CCOCC1)N1CCOCC1)N1CCOCC1)c1ccc(OC)cc1,inactive: 5.7%
9,CC(C)=N/N=C(\N)N[N+](=O)[O-],inactive: 14.4%
10,CN(C)C(=O)OCCc1n(C)cc[n+]1C,inactive: 5.6%
11,CC1CCN(C(=O)Oc2c(Cl)cc(Cl)c3cccnc23)CC1,inactive: 9.8%
12,COc1ccc(C2=NCC(CBr)S2)cc1 (centres undefined),inactive: 2.2%
13,CC(=O)N1C2C3N(C(C)=O)C1C1N(C(C)=O)C(C(N1C(C)=O)N3C(C)=O)N2C(C)=O,inactive: 2%
14,O=[N+]([O-])c1cccc2n[nH]nc12,inactive: -14.7%
15,Cc1ccc(NP(=O)(Oc2ccccc2)Oc2ccccc2)nc1,inactive: 10.8%
16,O=[N+]([O-])c1cc([N+](=O)[O-])c(CCNc2ccccc2)c([N+](=O)[O-])c1,inactive: -17%
17,CCc1nc2c(n1)c1c(non1O)c1c2no[n+]1[O-],inactive: -12.6%
18,Nc1cc(N)c2nonc2c1[N+](=O)[O-],inactive: 4.5%
19,CC(C)CC(=O)NC(Sc1ccc(Cl)cc1)C(Cl)(Cl)Cl (centres undefined),inactive: -1.1%
20,Oc1ccccc1CNc1ccccn1,inactive: -13.3%
21,O=C(NC(Sc1ccncn1)C(Cl)(Cl)Cl)c1ccccc1 (centres undefined),inactive: 3.9%
22,Cc1c2non([O-])c-2c(C)[n+](=O)[n+]1[O-],inactive: 9.9%
23,NC(=O)c1cc([N+](=O)[O-])cc([N+](=O)[O-])c1N,inactive: -6.7%
24,Cc1ccc(N/C(=N/P(=O)(N2CCOCC2)N2CCOCC2)N2CCOCC2)cc1,inactive: -13.1%
25,COc1ccccc1OP(=O)(Nc1ccc(C)cn1)Oc1ccccc1OC,inactive: 4.8%
26,Cc1ccc(OP(=O)(Nc2nccs2)Oc2ccc(C)cc2)cc1,inactive: -14.6%

row,SMILES,inhibition
1,CN1CCCC(OC(=O)C(c2ccccc2)c2ccccc2)C1 (centres undefined),inactive: -3.8%
2,Clc1ccc(Cl)c(NC2=NCC(CBr)S2)c1 (centres undefined),inactive: 7.5%
3,O=[N+]([O-])c1cc([N+](=O)[O-])c(CCN2CCOCC2)c([N+](=O)[O-])c1,inactive: 8%
4,CCN(N=Nc1nonc1N)c1nonc1N,inactive: -3.1%
5,Nc1cccc2ccc([As](=O)(O)O)cc12,inactive: 8.1%
6,CC(=O)Nc1ccc([As](=O)(O)O)cc1,inactive: 4.5%
7,O=C(O)c1ccccc1[As](=O)(O)O,inactive: 12.4%
8,O=P(Nc1nc2ccc(Cl)cc2s1)(c1ccccc1)c1ccccc1,inactive: -5.6%
9,Cc1cc(SC(NC(=O)c2ccc(F)cc2)C(Cl)(Cl)Cl)ncn1 (centres undefined),inactive: 3.7%
10,CCOP(=O)(Nc1ccccc1)OCC,inactive: -3.8% and inactive: -5.3%
11,Cc1ccc(NP(=O)(Oc2ccccc2F)Oc2ccccc2F)nc1,inactive: 0.4%
12,COC(=O)c1cc2c(s1)N=C(c1ccccc1)N(C)P2(=O)N1CCOCC1 (centres undefined),inactive: 7.1%
13,CC(=O)NC(SC(=S)N(CC(C)C)CC(C)C)C(Cl)(Cl)Cl (centres undefined),inactive: 4.2%
14,Cc1ccc(OP(=O)(Nc2ccccn2)Oc2ccc(C)cc2)cc1,inactive: 4.1%
15,O=C(OC1CN2CCC1CC2)c1ccccc1 (centres undefined),inactive: 14%
16,CCC(=O)N1C2C3N(C(=O)CC)C1C1N(C(=O)CC)C(C(N1C(=O)CC)N3C(=O)CC)N2C(=O)CC,inactive: -0.1%
17,Cc1ccccc1OP(=O)(Nc1ccccn1)Oc1ccccc1C,inactive: -5.1%
18,O=c1c2cc([N+](=O)[O-])ccc2[nH]c2c([N+](=O)[O-])cc([N+](=O)[O-])cc12,inactive: -16%
19,CN(C)C(=O)Oc1noc2ccccc12,inactive: -15%
20,O=C(NC1CCS(=O)(=O)C1)NP(=S)(Oc1ccccc1)Oc1ccccc1 (centres undefined),inactive: 6%
21,CCNC(=S)/N=C(\N)N[N+](=O)[O-],inactive: 15.6%
22,c1ccc(-c2nn[nH]n2)c(-c2nn[nH]n2)c1,inactive: 0.2%
23,Cc1ccc(NP(=O)(Oc2cccc(C)c2)Oc2cccc(C)c2)nc1,inactive: -10.6%
24,CCOC(=O)NC(Sc1ccccc1)C(Cl)(Cl)Cl (centres undefined),inactive: 13.3%
25,CC(=O)c1ccc(N2CC2c2ccncc2)cc1 (centres undefined),inactive: -17.4%
26,C[C@H]1OP(=O)(Oc2ccccc2)C[C@@H]2O[C@@H]21 (some centres undefined),inactive: -21%

row,SMILES,inhibition
1,C[C@@H]1C=CCP(=O)(Oc2ccccc2)O1 (some centres undefined),inactive: -9.6%
2,CC(=O)Nc1ccc([As](=O)(O)O)c(O)c1,inactive: 7.3%
3,CC(=O)Nc1ccc(Oc2c([N+](=O)[O-])cc([N+](=O)[O-])cc2[N+](=O)[O-])cc1,inactive: -1.6%
4,O=P1(Nc2nc3ccc(Cl)cc3s2)COc2ccccc2O1 (centres undefined),inactive: -6.7%
5,CCOc1ccc(C2=NCC(CBr)S2)cc1 (centres undefined),inactive: -10.6%
6,CC(C)(C)C(=O)NC(Sc1ccccc1)C(Cl)(Cl)Cl (centres undefined),inactive: -0.6%
7,O=P(Nc1nccs1)(c1ccccc1)c1ccccc1,inactive: 12.1%
8,CC(C)C(=O)NC(Sc1ccccc1)C(Cl)(Cl)Cl (centres undefined),inactive: -3.6%
9,c1nnnn1CCn1cnnn1,inactive: -4.5%
10,CC(=O)NC(SC(=S)N(C)C)C(Cl)(Cl)Cl (centres undefined),inactive: 10.4%
11,O=[N+]([O-])c1ncn(CCn2cnc([N+](=O)[O-])n2)n1,inactive: 1.1%
12,O=[N+]([O-])c1ccc(O)c(/C=N/Nc2ccc([N+](=O)[O-])cc2[N+](=O)[O-])c1,inactive: -22.2%
13,O=[As](O)(c1ccccc1)c1ccc(O)cc1,inactive: 2.8%
14,C(Cc1nn[nH]n1)Cc1nn[nH]n1,inactive: -1.1%
15,Nc1ccc([As](=O)(O)c2ccc([N+](=O)[O-])cc2)cc1,inactive: -4.4%
16,O=C(OC1CN2CCC1CC2)c1cccc(Cl)c1 (centres undefined),inactive: -7.9%
17,CN(C)C1(CNC(=O)c2ccc(Cl)c(S(N)(=O)=O)c2)CCCCC1,inactive: 1.7%
18,O=P(Nc1ccccn1)(c1ccc(Br)cc1)c1ccc(Br)cc1,inactive: -0.3%
19,O=P(Nc1nc2ccccc2s1)(c1ccccc1)c1ccccc1,inactive: 7.7%
20,C[C@H]1OP(=O)(Oc2ccccc2)[C@H](O)[C@H](O)[C@H]1N=[N+]=[N-] (some centres undefined),inactive: -5.2%
21,O=P1(Nc2ncccn2)COc2ccccc2OC1,inactive: 7.6%
22,Cc1ccc(OCC(=O)OC2CN3CCC2CC3)cc1 (centres undefined),inactive: 5.1%
23,O=[As](O)(c1cccs1)c1cccs1,inactive: 8%
24,O=P1(Nc2ccc(Br)cn2)COc2ccccc2OC1,inactive: 13.6%
25,Nc1cccc([As](=O)(O)c2ccccc2)c1,inactive: -8%
26,Cc1nn(-c2ccccc2)c2c1P(=O)(N1CCOCC1)N(C)C(c1ccccc1)=N2 (centres undefined),inactive: -14.2%

row,SMILES,inhibition
1,Cc1ccc(C(=O)OC2CN3CCC2CC3)cc1 (centres undefined),inactive: -5.8%
2,CC1CCC(C(C)C)C(OP(=O)(Nc2ccccn2)c2ccccc2)C1 (centres undefined),inactive: 9%
3,O=C(/C=C/c1ccccc1)OC1CN2CCC1CC2 (centres undefined),inactive: -2.9%
4,CN(C)C1(CNC(=O)c2ccc(S(C)(=O)=O)cc2)CCCCC1,inactive: 9.2%
5,O=[As](O)(c1ccccc1Br)c1ccccc1Br,inactive: 1.4%
6,CN(C(=O)Cc1ccc(Cl)c(Cl)c1)[C@@H]1CCCC[C@H]1N1CCCC1,inactive: -2.9%
7,CC(C)/C=N\N=C(\N)N[N+](=O)[O-],inactive: 2.7%
8,CCOP(=O)(Nc1ccc(C)cn1)OCC,inactive: -0.6%
9,CCC1=CC2Cc3nc4ccc(Cl)cc4c(N)c3C(C1)C2 (centres undefined),inactive: -6.4%
10,O=P1(Nc2ccccn2)COc2ccccc2OC1,inactive: 3.3%
11,CCOP(=O)(NC(=NC(C)c1ccccc1)NC(C)c1ccccc1)OCC (centres undefined),inactive: 1.1%
12,Clc1n[nH]nc1-c1nn[nH][15n]1,inactive: -2.8%
13,CC(C)(C)C(=O)NC(Sc1ncccn1)C(Cl)(Cl)Cl (centres undefined),inactive: -12%
14,CCCOP(=S)(Nc1nc(N)cc(=O)[nH]1)OCCC,inactive: 3.4%
15,Cc1ccc(NCCc2c([N+](=O)[O-])cc([N+](=O)[O-])cc2[N+](=O)[O-])cc1,inactive: -15.7%
16,Nc1cccc2c([As](=O)(O)O)cccc12,inactive: 14.7%
17,COc1cc(C2NCCC3(OCCO3)C2(C)C)cc(OC)c1OC (centres undefined),inactive: -0.4%
18,CCOP(=O)(Nc1cccc2ccccc12)OCC,inactive: -2.3%
19,O=[As](O)(O)c1cccnc1,inactive: -9.9%
20,COc1cc(C(=O)NCC2(N3CCOCC3)CCCCC2)cc(Cl)c1OC(C)C,inactive: -6.9%
21,CS(=O)(=O)c1ccc(Cl)c(NC(=O)COC(=O)C(O)(c2ccccc2)c2ccccc2)c1,inactive: 1.3%
22,O=C(OC1CN2CCC1CC2)c1ccc(Cl)cc1 (centres undefined),inactive: -1.6%
23,Cc1cccc(OCC(=O)OC2CN3CCC2CC3)c1 (centres undefined),inactive: 12.4%
24,O=[As](O)(c1cccc(O)c1)c1cccc(O)c1,inactive: -1.4%
25,NC(=O)Nc1ccc([As](=O)(O)O)cc1,inactive: -12.3%
26,O=[N+]([O-])c1ccc2c(c1)nnn2O,inactive: 8.4%

# Reference: PubChem BioAssay AID2058 (Sanford-Burnham Center for Chemical Genomics, 2009)
